Laboratory results as given in US10231463B2, “Food mass suitable for microwaving” (Chemische Fabrik Budenheim KG, priority 2013, dated 2019).

Experiment: Solubility of the additive in water at 20° C.
Format: physicochemical

Row | Substance | Solubility
1 | Ammonium molybdate [AmMD(V), reference compound] | 430 mg/mL
2 | Calcium gluconate [CaGl] | 30 mg/mL
